USRE32098E (Research and Education Institute, Inc., priority 1978, dated 1986)

By UniProt entry, the sequences of proteins in these tests, tags left out. Residues count along the entry.
UniProt P05543, 21-415 limits assumed: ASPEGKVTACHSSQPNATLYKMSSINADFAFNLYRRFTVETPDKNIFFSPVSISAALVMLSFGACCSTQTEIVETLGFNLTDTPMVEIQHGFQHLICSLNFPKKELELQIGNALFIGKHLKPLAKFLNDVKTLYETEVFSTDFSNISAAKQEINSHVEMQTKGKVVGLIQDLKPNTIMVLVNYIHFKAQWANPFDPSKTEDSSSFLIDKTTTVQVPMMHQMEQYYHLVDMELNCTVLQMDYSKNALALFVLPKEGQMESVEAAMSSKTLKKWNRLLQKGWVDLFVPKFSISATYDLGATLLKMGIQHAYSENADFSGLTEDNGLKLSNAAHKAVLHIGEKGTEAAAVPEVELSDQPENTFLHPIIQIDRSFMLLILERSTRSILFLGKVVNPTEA

What was measured:
TBG = TBG (Homo sapiens, UniProt P05543); experiment: Displacement of radioactive T3 from TBG; type: binding; settings: 100 ug blocking agent
[1] = molecular target: TBG (thyroxine-binding globulin) (Homo sapiens, UniProt P05543); experiment: Displacement of radioactive T4 from TBG in a CPBA system; parameters: unit not given here; settings: 100 ug blocking agent

O=[N+]([O-])c1cc([N+](=O)[O-])c(S(=O)(=O)O)c([N+](=O)[O-])c1
AMOUNT T3 DISPLACED FROM TBG (TBG): 7.0 ng | AMOUNT T4 DISPLACED FROM TBG [1]: 7.1
